From patent publication US12195774B2, “Antidotes to factor XA inhibitors” (Alexion Pharmaceuticals, Inc., priority 2018, dated 2025)

System: procoagulant activity
Test: in vitro fXa activity assays (procoagulant activity)
Assay type: biochemical
Settings: such as fXa activity assays

In the case of “fX-S395A: recombinant factor X active-site mutant”, the procoagulant activity is reported as “essentially has no procoagulant activity”.
